Values of other authors in patent US5847092A (Zambon Group S.p.A., priority 1994, dated 1998).

Conditions: literature; cited from earlier work

CC[C@H]1OC(=O)[C@H](C)[C@@H](O[C@H]2C[C@@](C)(OC)[C@@H](O)[C@H](C)O2)[C@H](C)[C@@H](O[C@@H]2O[C@H](C)C[C@H](N(C)C)[C@H]2O)[C@](C)(O)C[C@@H](C)C(=O)[C@H](C)[C@@H](O)[C@]1(C)O [Erythromycin A]
pharmacokinetic properties / bioavailability (in words): poor bioavailability
